Measurements reported in patent publication US7608626B2, “Substituted indolizines and derivatives as CNS agents” (Wyeth, priority 2004, dated 2009).

Sequences of proteins named here, by UniProt entry; tags and fusion partners are left off. Residues count along the entry.
UniProt P28335, 33-458: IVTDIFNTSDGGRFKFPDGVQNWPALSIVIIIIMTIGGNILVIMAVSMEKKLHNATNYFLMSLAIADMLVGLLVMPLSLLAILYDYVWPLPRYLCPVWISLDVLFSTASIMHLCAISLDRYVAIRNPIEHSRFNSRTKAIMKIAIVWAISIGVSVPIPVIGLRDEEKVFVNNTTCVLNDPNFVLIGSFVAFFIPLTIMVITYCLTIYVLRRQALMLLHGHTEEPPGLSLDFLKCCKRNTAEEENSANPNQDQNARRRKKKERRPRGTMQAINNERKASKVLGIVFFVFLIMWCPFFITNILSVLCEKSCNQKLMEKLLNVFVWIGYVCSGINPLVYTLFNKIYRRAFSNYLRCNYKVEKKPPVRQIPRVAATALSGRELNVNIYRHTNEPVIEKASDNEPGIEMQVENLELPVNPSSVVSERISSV

How the values were obtained:
[1] = biological target: T1, human 5-hydroxytryptamine-2C (h-5-HT2C) receptor (Homo sapiens, UniProt P28335); assay: [125I]DOI binding to membranes of CHO cells expressing h-5-HT2C receptor; conditions: reference compounds; [125I]DOI radioligand, CHO cell membranes; read-out: Ki (95% confidence interval)
T1 construct: expressed in transfected cells; host or cells: Chinese Hamster Ovary (CHO) cells; membrane preparation

human 5-HT2C receptor = biological target: T2, human 5-HT2C receptor (Homo sapiens, UniProt P28335); assay: 5-HT2C receptor-stimulated calcium mobilization (FLIPR) in CHO cells; format: cell-based; conditions: reference compounds
T2 construct: expressed in transfected cells

Clc1cccc(N2CCNCC2)c1 [mCPP, meta-chlorophenylpiperazine, reference compound]
Ki [1]: 6.5 nM
EC50 (human 5-HT2C receptor): 5.4 nM
